Laboratory results: patent publication US20240285730A1, “COMPOSITIONS AND METHODS FOR THE TREATMENT OF GRAFT VERSUS HOST DISEASE” (VectivBio AG, priority 2021, published 2024)

Tested on: cytarabine-induced toxicity
Assay: Apraglutide dose-response study with cytarabine chemotherapy
Format: in vivo, BALB/cJ female mice
Procedure: The apraglutide dose-dependent impact on the immunosuppressive effect of cytarabine was evaluated. The effect of cytarabine treatment on polymorphonuclear (PMN) cell count was determined (FIG. 20). […] In a separate study during which animals treated with cytarabine alone or in combination with apraglutide initiated before cytarabine (Days-4 to +12) were allowed to survive for 4 additional weeks.

Substance: hGLP-2: unmodified hGLP-2, comparator given twice daily at a nominal dose of 0.60 mg/kg with cytarabine (HADGSFSDEMNTILDNLAARDFINWLIQTKITD; Glucagon-like peptide 2; UniProt P01275 146-178, looked up) [reference compound]
- polymorphonuclear (PMN) cell count (cytarabine alone or combined with hGLP-2 or apraglutide): not reversed
- initial weight loss (cytarabine combined with 0.11 mg/kg apraglutide or hGLP-2 (0.60 mg/kg twice daily)): did not decrease initial weight loss
